Apparent affinities of Ab-91 variants for a coronavirus HR2 peptide

Target peptide (SARS-CoV-2 spike, HR2 region): PDVDLGDISGINAS

Each scFv is VL, the linker GGGGSGGGGSGGGGS, VH, as in the parent Ab-91, and differs from it in the CDRs of the heavy chain only.
VL: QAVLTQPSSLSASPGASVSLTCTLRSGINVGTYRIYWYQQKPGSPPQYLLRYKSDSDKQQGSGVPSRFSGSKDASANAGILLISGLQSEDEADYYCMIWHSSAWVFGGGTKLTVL
VH: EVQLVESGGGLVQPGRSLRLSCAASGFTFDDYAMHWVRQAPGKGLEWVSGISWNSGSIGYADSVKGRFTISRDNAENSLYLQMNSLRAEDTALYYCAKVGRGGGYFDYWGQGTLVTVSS

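In library AAYL51, one, two or three CDR residues were substituted; doubles and triples were drawn at random. AlphaSeq pools MATa yeast showing the antibodies with MATalpha yeast showing the peptide. Mating (16 h, 30 °C) was followed by selection of diploids and sequencing of their barcodes. Each replicate has its own calibration line, from reference interactions of the BCL2 family. Mating was done three times.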

Positions count from residue 1 of the parent VH; F27S puts S in place of F.
Values are log10 of the apparent Kd in nM; lower means stronger binding.
The mean shown is taken over the replicates in which the pair was detected.
"ND" marks a missing value. The strain was present, yet no cells mated with the target were sequenced in that replicate, which points to weak or no binding.
Nonspecific signal, from three strains lacking the peptide, appeared in 21% of pairings of library AAYL51, centred on 4.54 (5% of these signals below 3.26); values are not corrected for it. The control count says in how many pairings with the empty strains this scFv gave a signal.

With F27S/Y32Q/G50F the result was 4.63, 4.61, ND (mean 4.62; controls 2 of 9).
With F29N/K65M/V99Y the result was ND, 4.57, 5.00 (mean 4.78; controls 2 of 9).
With A33Q/V64S the result was ND, ND, ND (controls 2 of 9).
With S55K/G56Q the result was 2.52, 4.83, ND (mean 3.68; controls 0 of 9).
With S57L/G102D/G104L the result was ND, ND, ND (controls 1 of 9).
With M34C/G56Q/R101C the result was 4.66, 4.70, 3.90 (mean 4.42; controls 4 of 9).
With H35E/S55Y/G103I the result was ND, ND, ND (controls 0 of 9).
With W53H/F106L the result was 2.84, 3.06, 2.42 (mean 2.77; controls 1 of 9).
With S57R/K65N/G104E the result was 4.03, 4.03, 4.28 (mean 4.11; controls 3 of 9).
With G50I/I58N/G59N the result was ND, ND, ND (controls 2 of 9).
With F29N/I51D/G59R the result was 4.28, 5.72, ND (mean 5.00; controls 1 of 9).
With W53Q/A61Q/V64Q the result was 4.93, ND, ND (controls 1 of 9).
With W53P/D62W/F106Y the result was 2.16, 2.44, 2.20 (mean 2.27; controls 5 of 9).
With S63W/G100W/Y105W the result was 2.48, 2.49, 2.33 (mean 2.44; controls 5 of 9).
With I51L/G100Q/G104V the result was ND, ND, ND (controls 0 of 9).
With D62Q/F106M the result was 0.94, 1.73, 0.99 (mean 1.22; controls 0 of 9).
With N54F/V64A/K65G the result was ND, ND, ND (controls 0 of 9).
With G26Y/H35F/K65I the result was ND, 5.87, 4.62 (mean 5.24; controls 4 of 9).
With G26S/I51T/Y105V the result was 4.31, 6.16, ND (mean 5.24; controls 4 of 9).
With M34N/N54Q/A61W the result was ND, ND, 3.95 (controls 1 of 9).
With F27D/F106T the result was ND, ND, ND (controls 4 of 9).
With D31N/N54G/D107N the result was ND, ND, ND (controls 0 of 9).
With T28H/V64Q/G103C the result was ND, ND, ND (controls 1 of 9).
With I51R/S63I the result was ND, 5.62, ND (controls 4 of 9).
With F29Y/D31E/Y32N the result was 4.61, 4.69, ND (mean 4.65; controls 1 of 9).
With M34Q/V64I/Y105A the result was 3.83, ND, ND (controls 1 of 9).
With G26I/I58Q/A61Y the result was 5.41, 4.34, ND (mean 4.88; controls 4 of 9).
With G102N/Y105C/D107K the result was 4.77, 4.52, 4.31 (mean 4.53; controls 7 of 9).
With S55M/G100I the result was 4.63, ND, ND (controls 1 of 9).
With G26A/I51P/S52V the result was 4.33, 4.49, ND (mean 4.41; controls 1 of 9).
With F27S/D62Q/G104T the result was 3.36, 3.80, 3.71 (mean 3.62; controls 4 of 9).
With G56C/Y60I/S63C the result was 3.40, 2.82, 3.24 (mean 3.15; controls 3 of 9).
With G26V/V64N/Y108Q the result was ND, ND, ND (controls 1 of 9).
With S57C/G102Y/G103K the result was ND, ND, ND (controls 0 of 9).
With S52G/G104H/D107P the result was ND, ND, ND (controls 3 of 9).
With Y32F/W53V/D62I the result was ND, ND, 2.91 (controls 3 of 9).
With F27Y/W53Y/D62W the result was ND, ND, ND (controls 0 of 9).
With Y60L/D62A/F106D the result was ND, ND, ND (controls 1 of 9).
With N54P/K65M the result was ND, 4.18, ND (controls 2 of 9).
With T28D/D31H/H35W the result was ND, ND, ND (controls 2 of 9).
With S63L/G102H/G104A the result was ND, 4.99, ND (controls 3 of 9).
With A33F/D62S/G100T the result was ND, 6.65, 4.82 (mean 5.73; controls 5 of 9).
With Y32Q/I58S/Y105G the result was 3.56, ND, ND (controls 1 of 9).
With G26D the result was 4.57, 5.30, ND (mean 4.94; controls 2 of 9).
With F27H/D31T/S52G the result was 4.75, 4.59, ND (mean 4.67; controls 1 of 9).
With W53Q/S57A/G104P the result was ND, ND, ND (controls 0 of 9).

Excerpt, the first 3 entries:

{"changes": "F27S/Y32Q/G50F", "log10 Kd, replicates": "4.63, 4.61, ND", "mean log10 Kd (nM)": "4.62", "control signals": "2/9"}
{"changes": "F29N/K65M/V99Y", "log10 Kd, replicates": "ND, 4.57, 5.00", "mean log10 Kd (nM)": "4.78", "control signals": "2/9"}
{"changes": "A33Q/V64S", "log10 Kd, replicates": "ND, ND, ND", "mean log10 Kd (nM)": "ND", "control signals": "2/9"}

The measurements come from Engelhart et al. 2022 (doi:10.1038/s41597-022-01779-4) through the FLAb antibody collection.